According to US11576947B2, “Oral composition and method” (Kunming Lanchie Dental Hospital, LTD, priority 2019, dated 2023):

Experiments:
[1] = Stability test in propylene glycol (Brilliant Blue color dissipation); type: physicochemical; set-up: key: ++++: no color dissipation; +++: slightly dissipation; ++: obvious dissipation; +: totally dissipated; settings: 2.76% carbamide peroxide, 0.002% Brilliant Blue, compound amount 1%, 60 days, room temperature
[2] = Stability test in aqueous system (Brilliant Blue color dissipation); type: physicochemical; set-up: key: ++++: no color dissipation; +++: slightly dissipation; ++: obvious dissipation; +: totally dissipated; settings: water, 2.76% carbamide peroxide, 0.002% Brilliant Blue; compound amount 1%; 60 days, room temperature
[3] = System stability evaluation: compatibility of ingredients with peroxide source and the system; settings: summary of testing of Tables 2 and 3

| Substance | Color (color fading grade) [1] | Color (color fading grade) [2] | Effect on peroxide and system stability [3] |
| --- | --- | --- | --- |
| N-Cocoyl-L-glutamic acid monotriethanolamine [Amisoft CT-12S] | + | + | – |
| Natural calcium carbonate | – | – | activate the peroxide and make the system unstable |
